Measured affinities in a library of Ab-91 heavy chain variants

Reference: Engelhart et al. 2022, doi:10.1038/s41597-022-01779-4. File: FLAb, binding data.

Target: peptide PDVDLGDISGINAS, taken from heptad repeat 2 (HR2) of SARS-CoV-2 spike.

The variants keep the light chain, the linker and the frameworks of Ab-91 (scFv order VL, the linker GGGGSGGGGSGGGGS, VH).
VL: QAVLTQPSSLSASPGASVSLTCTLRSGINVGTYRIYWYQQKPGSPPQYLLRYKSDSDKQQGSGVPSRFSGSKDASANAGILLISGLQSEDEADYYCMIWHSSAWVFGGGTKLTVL
VH: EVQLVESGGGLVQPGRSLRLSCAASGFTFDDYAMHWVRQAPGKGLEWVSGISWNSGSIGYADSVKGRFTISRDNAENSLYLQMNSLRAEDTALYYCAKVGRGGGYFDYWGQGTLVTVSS

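Phage display of a naive human antibody library on the peptide gave the parent. In library AAYL51, one, two or three CDR residues were substituted; doubles and triples were drawn at random. In AlphaSeq, yeast of one mating type display the scFv and yeast of the other type display the target. Pairs that bind mate more often; barcode pairs of the diploids are counted by sequencing. Each replicate has its own calibration line, from reference interactions of the BCL2 family. There are three technical replicates.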

Variants are written as CDR1, CDR2 and CDR3 of the heavy chain (limits as in the source). Parent: GFTFDDYAMH, GISWNSGSIGYADSVK, VGRGGGYFDY. Every variant below is changed at S52 of the VH (sequential numbering). Values are log10 of the apparent Kd in nM; lower means stronger binding. Averages over replicates are reported, and they cover detected replicates only. "n.d." marks a missing value. The strain was present, yet no cells mated with the target were sequenced in that replicate, which points to weak or no binding. As a blank, each scFv also met three strains without target: over library AAYL51, 21% of these pairings were detected, typically at 4.54 and seldom below 3.26.

CDR-H1	CDR-H2	CDR-H3	log10 Kd (nM) by replicate	log10 Kd (nM), mean
GFTFDDYAMH	GIYWNSGSWGYADSVK	VGYGGGYFDY	n.d. n.d. n.d.	n.d.
GFTFDDYAMH	GIFWNSGSPGYWDSVK	VGRGGGYFDY	n.d. 4.90 n.d.	4.90
GFTFDDYAMH	GIYWNSGSIGYADSVK	VGRGGGYFDY	n.d. n.d. 5.23	5.23
GFTFDDYAMH	GIRWNSGSVGWADSVK	VGRGGGYFDY	n.d. n.d. n.d.	n.d.
GFTFDHYAMH	GIMWNSGSIGYADSVK	VGRGGGCFDY	1.27 1.14 0.78	1.06
GFTFDDCAMH	GIIWNSGSIGYADSVK	VNRGGGYFDY	5.34 5.47 n.d.	5.40
GFTFDDYTMH	GQTWNSGSIGYADSVK	VGRGGGYFDY	n.d. n.d. n.d.	n.d.
GFTFDDYAMQ	GIMWNSGYIGYADSVK	VGRGGGYFDY	n.d. n.d. 3.48	3.48
GFTFDDYVMH	GIIWNSGSIGYADSVK	VGRGGGYFDI	5.21 n.d. 4.26	4.73
GFTFDDYAMH	GIYWNSGSIGYADSVK	QGRCGGYFDY	4.79 n.d. n.d.	4.79
GFTFDDYAMH	GIPWNSGLIGYADSQK	VGRGGGYFDY	5.71 n.d. n.d.	5.71
GFTFDDYAMH	GITWNSGSIGYADSVK	VGRGGGYFDY	3.96 5.53 4.26	4.58
GFTFDDYAMH	GIAWNSGSIGYADSVE	FGRGGGYFDY	0.39 0.46 -0.35	0.17
GFTFDDYAMH	GIFWNSGSIGYADSVK	VGRGGNYFDY	n.d. n.d. n.d.	n.d.
GFTFDDYAMH	GIYWNSHGIGYADSVK	VGRGGGYFDY	4.98 n.d. 5.68	5.33
GFTFDDKAMH	GIMWNSGSIGYADSVK	VGRGGGYFDY	4.97 4.75 4.39	4.70
GFTFDDYAMH	GIWWNSGSIGYADSPA	VGRGGGYFDY	4.28 n.d. n.d.	4.28
GDTFDDYAMH	GIWWNSGSIGYADSVK	VGRGGGYFDY	n.d. n.d. n.d.	n.d.
GFTFDDTAMH	GIIWNSGSIGYADSTK	VGRGGGYFDY	4.88 6.94 4.72	5.51
GFTFDDYAMH	SIYWESGSIGYADSVK	VGRGGGYFDY	4.78 n.d. 5.32	5.05
GKTFDDPAMH	GIAWNSGSIGYADSVK	VGRGGGYFDY	4.91 n.d. n.d.	4.91
GFTFDDYAMH	GIMWNSGSIGYADSVK	VGRGGGYFGY	5.21 n.d. n.d.	5.21
GFSFDDYAMH	GITWNSGSIGYADSVK	VGRGGGYFDY	n.d. n.d. n.d.	n.d.
GFTFDDYAMH	GILWNSGSIGYADSVK	VWRGRGYFDY	4.53 n.d. n.d.	4.53
GFTFDDYAMH	GIFWNSGSIGYADSVK	VGRGGGYFDY	n.d. n.d. n.d.	n.d.
GFTFDDYAYH	GIYWNSGSIGYADSVK	VGRGGMYFDY	n.d. n.d. n.d.	n.d.
GFTFDDYAMH	GIGWNSGSIGYADSQK	VGRGGGYFDY	n.d. n.d. n.d.	n.d.
GFTFDDYAMH	RITWNSGSIGYLDSVK	VGRGGGYFDY	4.55 n.d. n.d.	4.55
GFTFDDYAMH	GIHWNSSSIGYADSVK	VGRSGGYFDY	4.53 n.d. n.d.	4.53
GATFDDYAMH	GIDWNSGSIGYADSVK	VGLGGGYFDY	3.94 n.d. n.d.	3.94
GFTFDDYAMH	GILWNSGSIGYADSVF	VGRGGGYFRY	4.79 n.d. n.d.	4.79
GFTFDDYADH	GIFLNSGSIGYADSVK	VGRGGGYFDY	4.95 5.29 n.d.	5.12
GFTFDDYAMH	GIYLNSGSIGYADSVK	VGRGGGYFDY	n.d. n.d. n.d.	n.d.
NFTFDDYAMH	GIYWNSGSIGYADSVK	VGRGGGYFDY	4.49 n.d. n.d.	4.49
GFTFDDYAMH	GICWNSGSIGIADSVK	VGRGGGYQDY	n.d. n.d. n.d.	n.d.
GFTFDCYAMH	GICWNSGSIGYADSVK	VGRGGGYFDY	n.d. n.d. n.d.	n.d.
GFTFDDYAMH	GIPWNSGSKGYADSVK	VGRGGGSFDY	n.d. n.d. n.d.	n.d.
GFTFDDYAMH	GLCWNSGSIGYADSVM	VGRGGGYFDY	5.07 5.86 4.22	5.05
GFTFDDYAMH	GIWWNSGSWGYADSVK	VNRGGGYFDY	3.98 6.53 n.d.	5.26
GFTFDDYAMH	GIFWNSGSDGYADSVK	VGRGGGYFDY	n.d. n.d. n.d.	n.d.
GITFDDYAMH	GINWNSGSIGYADSVK	VGRGGGYFDT	n.d. n.d. n.d.	n.d.
GFTFDDYAMH	GIGWNSGSIGYQDSGK	VGRGGGYFDY	n.d. n.d. 3.99	3.99
NFTFDDYAMH	GITWNSGSIGYADSVK	VGRGGGWFDY	4.44 5.55 5.21	5.07
GFTFDDYAMH	GICWNSGSIGYAKSVK	VDRGGGYFDY	5.41 n.d. 4.73	5.07
GFTFDDYAMH	GIMWNSGSIGYADSVK	VGRGGGNFIY	n.d. n.d. n.d.	n.d.
GFTFDDYAMH	GIDWNSGSIGYADSVK	VGRGGMTFDY	5.13 4.78 5.34	5.08
GFTFDDPAMH	GILWNSGSIGKADSVK	VGRGGGYFDY	n.d. n.d. n.d.	n.d.

Repeated from above, the 3 best binders with a signal in all replicates:

| CDR-H1 | CDR-H2 | CDR-H3 | log10 Kd (nM) by replicate | log10 Kd (nM), mean |
|---|---|---|---|---|
| GFTFDDYAMH | GIAWNSGSIGYADSVE | FGRGGGYFDY | 0.39 0.46 -0.35 | 0.17 |
| GFTFDHYAMH | GIMWNSGSIGYADSVK | VGRGGGCFDY | 1.27 1.14 0.78 | 1.06 |
| GFTFDDYAMH | GITWNSGSIGYADSVK | VGRGGGYFDY | 3.96 5.53 4.26 | 4.58 |